{"sequences": {"note": "Amino acid sequences for entries named in this document (tags omitted). A change or cut given only in a name is not applied to a line headed by its entry.", "UniProt P35462, whole entry": "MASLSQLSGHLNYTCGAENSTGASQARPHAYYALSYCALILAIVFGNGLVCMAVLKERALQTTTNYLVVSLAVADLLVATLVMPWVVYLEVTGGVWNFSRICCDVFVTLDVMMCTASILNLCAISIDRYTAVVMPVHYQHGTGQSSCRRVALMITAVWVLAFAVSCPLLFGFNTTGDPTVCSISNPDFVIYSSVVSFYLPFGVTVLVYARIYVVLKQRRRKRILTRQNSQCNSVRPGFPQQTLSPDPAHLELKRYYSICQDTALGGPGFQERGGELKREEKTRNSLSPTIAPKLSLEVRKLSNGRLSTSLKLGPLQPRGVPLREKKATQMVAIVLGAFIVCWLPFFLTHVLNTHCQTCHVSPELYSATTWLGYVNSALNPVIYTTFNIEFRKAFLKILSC", "UniProt Q9Y5N1": "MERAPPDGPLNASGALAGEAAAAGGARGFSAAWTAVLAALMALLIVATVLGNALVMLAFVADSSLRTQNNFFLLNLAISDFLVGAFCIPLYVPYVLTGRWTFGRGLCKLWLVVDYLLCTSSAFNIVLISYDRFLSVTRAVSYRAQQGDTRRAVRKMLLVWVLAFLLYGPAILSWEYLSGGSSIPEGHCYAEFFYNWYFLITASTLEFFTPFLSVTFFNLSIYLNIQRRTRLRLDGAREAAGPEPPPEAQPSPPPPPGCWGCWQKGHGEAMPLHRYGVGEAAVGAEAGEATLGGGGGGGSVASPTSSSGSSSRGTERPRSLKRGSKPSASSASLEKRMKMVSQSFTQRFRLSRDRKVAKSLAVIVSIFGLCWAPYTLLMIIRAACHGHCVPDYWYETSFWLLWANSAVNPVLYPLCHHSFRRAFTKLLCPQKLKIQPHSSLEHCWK", "UniProt P08172, whole entry": "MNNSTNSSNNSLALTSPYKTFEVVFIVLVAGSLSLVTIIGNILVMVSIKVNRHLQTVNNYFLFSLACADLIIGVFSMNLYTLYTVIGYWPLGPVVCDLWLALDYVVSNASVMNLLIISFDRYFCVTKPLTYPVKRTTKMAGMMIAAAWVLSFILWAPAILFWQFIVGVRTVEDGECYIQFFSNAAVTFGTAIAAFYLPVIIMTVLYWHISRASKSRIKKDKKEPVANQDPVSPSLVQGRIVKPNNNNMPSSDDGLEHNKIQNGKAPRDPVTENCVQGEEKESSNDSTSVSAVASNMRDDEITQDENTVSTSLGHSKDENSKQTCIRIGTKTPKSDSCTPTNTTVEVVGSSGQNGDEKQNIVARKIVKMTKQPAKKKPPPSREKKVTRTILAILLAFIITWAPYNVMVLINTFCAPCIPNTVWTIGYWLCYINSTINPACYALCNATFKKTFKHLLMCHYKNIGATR", "UniProt P49146, whole entry": "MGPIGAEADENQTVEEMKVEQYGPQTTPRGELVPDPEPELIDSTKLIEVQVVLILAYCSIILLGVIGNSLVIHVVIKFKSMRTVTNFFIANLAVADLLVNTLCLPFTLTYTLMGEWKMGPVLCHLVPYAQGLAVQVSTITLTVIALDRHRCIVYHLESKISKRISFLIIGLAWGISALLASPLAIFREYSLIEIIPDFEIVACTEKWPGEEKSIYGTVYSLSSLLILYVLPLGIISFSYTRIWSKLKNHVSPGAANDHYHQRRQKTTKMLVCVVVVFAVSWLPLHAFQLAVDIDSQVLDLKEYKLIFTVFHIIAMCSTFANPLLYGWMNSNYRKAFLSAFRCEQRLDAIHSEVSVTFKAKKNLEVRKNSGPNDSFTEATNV", "UniProt P35372, whole entry": "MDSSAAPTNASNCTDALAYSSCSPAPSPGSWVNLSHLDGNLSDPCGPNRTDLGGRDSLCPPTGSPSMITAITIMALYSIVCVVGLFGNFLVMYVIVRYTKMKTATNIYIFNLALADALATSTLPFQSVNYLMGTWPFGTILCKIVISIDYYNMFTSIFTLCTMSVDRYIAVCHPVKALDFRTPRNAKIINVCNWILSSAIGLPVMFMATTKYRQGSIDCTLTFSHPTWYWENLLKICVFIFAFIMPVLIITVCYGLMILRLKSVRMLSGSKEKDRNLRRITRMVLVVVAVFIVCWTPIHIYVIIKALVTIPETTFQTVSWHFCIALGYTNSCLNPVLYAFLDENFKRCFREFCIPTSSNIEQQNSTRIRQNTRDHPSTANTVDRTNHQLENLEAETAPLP"}, "source": "paper PMC8237303", "about": "(Heliyon, 2021)", "key": {"[1]": {"biological_target": "Dopamine D3 receptor (Human) (Homo sapiens, UniProt P35462)", "assay": "R-", "type": "binding", "details": "Human recombinant"}, "[2]": {"biological_target": "Histamine H3 receptor (Human) (Homo sapiens, UniProt Q9Y5N1)", "assay": "N-alpha-[3H]-Methylhistamine, Dihydrochloride binding assay", "details": "Human recombinant"}, "[3]": {"biological_target": "Muscarinic M2 receptor (Human) (Homo sapiens, UniProt P08172)", "assay": "[3H]-Scopolamine Methyl Chloride binding assay", "details": "Human recombinant"}, "[4]": {"biological_target": "Neuropeptide Y2 receptor (Human) (Homo sapiens, UniProt P49146)", "assay": "[125I]-Peptide YY", "type": "binding", "details": "Human receptor (Non-recombinant)"}, "[5]": {"biological_target": "Opiate μ receptor (Human) (Homo sapiens, UniProt P35372)", "assay": "[3H]-Diprenorphine binding assay", "details": "Human recombinant"}}, "data": [{"compound": "CCCN(CCC)C1CCc2ccc(O)cc2C1", "note": "(racemic) [(±)-7-Hydroxy-2-(di-n-propylamino)tetralin]", "values": [{"measurement": "Inhibition by a positive substance (%)", "setting": "[1]", "result": 100, "unit": "%"}]}, {"compound": "C[C@@H](N)Cc1c[nH]cn1.Cl.Cl", "note": "[(R) (−)-α-Methylhistamine dihydrochloride]", "values": [{"measurement": "Inhibition by a positive substance (%)", "setting": "[2]", "result": 100, "unit": "%"}]}, {"compound": "CN1C2CCC1CC(OC(=O)C(CO)c1ccccc1)C2.CN1C2CCC1CC(OC(=O)C(CO)c1ccccc1)C2.O.O=S(=O)(O)O", "note": "(centres unmarked) [Atropine sulfate salt monohydrate]", "values": [{"measurement": "Inhibition by a positive substance (%)", "setting": "[3]", "result": 99.97, "unit": "%"}]}, {"compound": "Neuropeptide Y human", "values": [{"measurement": "Inhibition by a positive substance (%)", "setting": "[4]", "result": 98.66, "unit": "%"}]}, {"compound": "[D-Ala 2, N–Me-Phe 4, Gly5-ol]-Enkephalin acetate salt", "values": [{"measurement": "Inhibition by a positive substance (%)", "setting": "[5]", "result": 100, "unit": "%"}]}]}
